# Results reported in PubChem BioAssay AID624417 (National Center for Advancing Translational Sciences (NCATS), 2012).
# By UniProt entry, the sequences of proteins in these tests, tags left out.
# UniProt P43220, whole entry: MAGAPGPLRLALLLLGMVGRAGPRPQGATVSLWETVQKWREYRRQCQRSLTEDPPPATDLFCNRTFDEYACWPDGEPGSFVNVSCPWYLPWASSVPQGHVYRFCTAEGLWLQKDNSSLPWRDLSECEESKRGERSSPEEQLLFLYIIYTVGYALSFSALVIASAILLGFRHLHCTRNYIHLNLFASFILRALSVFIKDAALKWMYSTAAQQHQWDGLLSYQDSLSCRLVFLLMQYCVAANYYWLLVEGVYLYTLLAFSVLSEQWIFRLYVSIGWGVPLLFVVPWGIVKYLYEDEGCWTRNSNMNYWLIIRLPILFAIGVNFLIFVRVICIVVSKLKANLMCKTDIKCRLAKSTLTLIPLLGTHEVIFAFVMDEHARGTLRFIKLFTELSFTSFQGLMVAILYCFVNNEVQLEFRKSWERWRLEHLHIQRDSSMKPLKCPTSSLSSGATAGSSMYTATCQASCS
# Only a part is listed here, and it is no random draw. Results filed as inconclusive are left out. Some structures show a salt or complex split into parts, the way the source records it. Active and inactive are the calls of the source. Calls come from the whole dose curve; as a rule, active = well fitted inhibition curve with a large enough effect; inconclusive = small, poorly fitted or top-dose-only effect; inactive = no such curve, though single readings can be large or run the other way.
# Target: Glucagon-like peptide 1 receptor (Homo sapiens) (UniProt P43220)
# Assay: qHTS of GLP-1 Receptor Inverse Agonists (Inhibition Mode); note: nearly all actives have a fitted effect of over 55% in size
# Details: HEK293 GLP-1R CRE-luciferase, luminescence, 24 h, GLP-1R form is constitutively active; series mostly up to 38.3 µM; activity change, negative = inhibition: at the top concentration
# % is set by controls: 0 for no effect and ±100 for the full control effect; potency is the fitted concentration of half-maximal effect.
Structure (SMILES),"activity change, negative = inhibition",Potency
Cc1ccc(C(=O)NCC2(N3CCCCC3)CCCCC2)o1,inactive: 3.54%,–
CCN1CCC(Nc2cccc(F)c2)CC1,inactive: 12.7%,–
COc1ccc(C(c2nnnn2C2CCCCC2)N2CCC(n3c(=O)[nH]c4ccccc43)CC2)cc1 (stereo not given),inactive: 8.24%,–
CC(C)(C)n1nnnc1C(c1ccnc2ccccc12)N1CCC(n2c(=O)[nH]c3ccccc32)CC1 (stereo not given),inactive: 4.18%,–
Cc1ccccc1NC1(C#N)CCN(Cc2ccccc2)CC1,inactive: 26.1%,–
CN(C)c1ccc(C(=O)NCC2(N3CCCCC3)CCCCC2)cc1,inactive: 13.3%,–
Cn1c(=O)[nH]cc(N(CCCl)CCCl)c1=O,inactive: 8.82%,–
O=C(NCC1(N2CCCCC2)CCCCC1)c1ccco1,inactive: 11.5%,–
CC(C)(C)c1ccc(C(=O)NCC2(N3CCOCC3)CCCCC2)cc1,–,active: 8.91 µM
Cc1ccccc1C(=O)NCC1(N(C)C)CCCCC1,inactive: 14.3%,–
CCOc1ccc(C)cc1CN(CCCl)CCCl,inactive: -0.942%,–
O=C1CCN(Cc2ccccc2)CC1,inactive: -19.4%,–
CC(C)(C)n1nnnc1C(c1ccccc1)N1CCC(n2c(=O)[nH]c3ccccc32)CC1 (stereo not given),inactive: 3.38%,–
O=C(NCC1(N2CCOCC2)CCCCC1)c1ccc(Cl)cc1,inactive: 1.3%,–
COc1ccc(NC2CCN(CCc3ccccc3)CC2)c(OC)c1,inactive: 0%,–
CCOC(=O)N1CCC(Nc2ccc(F)cc2)CC1,inactive: 17.2%,–
O=P1(N(CCCl)CCCl)SCCCS1,inactive: 5.99%,–
CCCCOc1ccc(C(=O)NCC2(N3CCOCC3)CCCCC2)cc1,inactive: -26%,–
O=C(NCC1(N2CCCCC2)CCCCC1)c1ccc(F)cc1,inactive: -1.4%,–
COc1ccccc1C(=O)NCC1(N2CCOCC2)CCCCC1,inactive: -18.5%,–
O=c1[nH]c2ccccc2n1C1CCN(C(c2ccccc2)c2nnnn2C2CCCCC2)CC1 (stereo not given),inactive: 12.2%,–
CCOC(=O)N1CCC(Nc2cccc(C)c2)CC1,inactive: -2.08%,–

Structure (SMILES),"activity change, negative = inhibition",Potency
COc1cc(C(=O)NCC2(N(C)C)CCCCC2)ccc1OC(F)F,inactive: -28.9%,–
O=C(NCC1(N2CCCCC2)CCCCC1)c1cccs1,inactive: 10.3%,–
CCCCn1nnnc1C(CC)N1CCC(n2c(=O)[nH]c3ccccc32)CC1 (stereo not given),inactive: 5.02%,–
O=C(NCC1(N2CCCCC2)CCCCC1)c1ccc(=O)[nH]c1,inactive: 9.23%,–
CC(C)(C)OC(=O)N1CCC(N(C(=O)c2ccccc2)c2ccc(F)cc2)CC1,inactive: -14.9%,–
COc1ccc(C(=O)NCC2(N3CCCCC3)CCCCC2)c(OC)c1OC,inactive: -33.4%,–
CCC(c1nnnn1C1CCCC1)N1CCC(n2c(=O)[nH]c3ccccc32)CC1 (stereo not given),inactive: 23.2%,–
COc1ccc(C(=O)NCC2(N3CCCCC3)CCCCC2)cc1,inactive: -2.41%,–
Cc1cccc(NC2(C#N)CCN(Cc3ccccc3)CC2)c1,inactive: -3.46%,–
CSc1ccccc1C(=O)NCC1(N2CCCCC2)CCCCC1,inactive: 17.6%,–
Cc1cc(C)cc(N(C(=O)c2ccccc2)C2CCN(C(=O)OC(C)(C)C)CC2)c1,–,active: 5.01 µM
O=C(NCC1(N2CCCCC2)CCCCC1)c1ccc(Cl)nc1,inactive: 10.1%,–
O=c1[nH]c2ccccc2n1C1CCN(C(c2ccccc2OC(F)(F)F)c2nnnn2C2CCCCC2)CC1 (stereo not given),inactive: 12%,–
CCCCn1nnnc1C(c1ccc(OC)cc1)N1CCC(n2c(=O)[nH]c3ccccc32)CC1 (stereo not given),inactive: -17.6%,–
CCOC(=O)N1CCC(Nc2ccc(OC)cc2)CC1,inactive: 18.4%,–
O=C1C(O)=C([N+](=O)[O-])C(=O)C(O)=C1[N+](=O)[O-],inactive: -9.41%,–
N#CC1(Nc2ccccc2)CCN(Cc2ccccc2)CC1,inactive: 1.34%,–
O=C(NCC1(N2CCCCC2)CCCCC1)c1ccc(Cl)s1,inactive: -13.1%,–
O=c1[nH]c2ccccc2n1C1CCN(C(c2cc3ccccc3o2)c2nnnn2C2CCCCC2)CC1 (stereo not given),inactive: 25.5%,–
O=[N+]([O-])c1cc([N+](=O)[O-])c(OC2CCCCC2O)c([N+](=O)[O-])c1 (stereo not given),inactive: -17.6%,–
CN(C)c1cccc(C(=O)NCC2(N3CCCCC3)CCCCC2)c1,inactive: 1.02%,–
COc1ccc(CN(CCCl)CCCl)cc1Cl,inactive: 5%,–

Structure (SMILES),"activity change, negative = inhibition",Potency
CCCCn1nnnc1C(c1ccnc2ccccc12)N1CCC(n2c(=O)[nH]c3ccccc32)CC1 (stereo not given),inactive: -23.2%,–
CCC(c1nnnn1C(C)(C)C)N1CCC(n2c(=O)[nH]c3ccccc32)CC1 (stereo not given),inactive: 21.2%,–
COc1cc(OC)c(C(=O)NCC2(N(C)C)CCCCC2)cc1OC,inactive: -0.13%,–
CN1CCC(Nc2cccc(F)c2)CC1,inactive: 0.75%,–
COc1ccc2c(c1O)-c1c(O)c(OC)cc3c1[C@H](C2)[N+](C)(C)CC3.O=[N+]([O-])c1cc([N+](=O)[O-])c([O-])c([N+](=O)[O-])c1[O-],inactive: 4.27%,–
O=C(NCC1(N2CCCCC2)CCCCC1)c1cncc(Br)c1,inactive: 3.61%,–
O=C(OC1CN2CCC1CC2)c1ccc([N+](=O)[O-])cc1 (stereo not given),inactive: -25.7%,–
O=C(NCC1(N2CCOCC2)CCCCC1)c1ccccc1Br,inactive: -5.33%,–
CCCOc1ccc(C(=O)NCC2(N(C)C)CCCCC2)cc1OC,inactive: -7.53%,–
Cc1ccc(C(=O)NCC2(N(C)C)CCCCC2)o1,inactive: 4.05%,–
O=[N+]([O-])c1cc([N+](=O)[O-])c(Nc2ccc(Cl)cc2)c([N+](=O)[O-])c1,inactive: -15.9%,–
O=C(NCC1(N2CCCCC2)CCCCC1)c1ccc(OC(F)F)cc1,inactive: -29.8%,–
O=C(NCC1(N2CCCCC2)CCCCC1)c1cccc([N+](=O)[O-])c1,inactive: -3.17%,–
CCOc1ccc(C(=O)NCC2(N3CCOCC3)CCCCC2)cc1,inactive: -22%,–
N#CC1(Nc2ccccc2)CCN(CCc2ccccc2)CC1,inactive: -8.09%,–
O=C(NCC1(N2CCCCC2)CCCCC1)c1cccc(C(F)(F)F)c1,inactive: 1.93%,–
O=[N+]([O-])c1cc([N+](=O)[O-])c(NCC2CCS(=O)(=O)C2)c([N+](=O)[O-])c1 (stereo not given),inactive: 103%,–
CN1CCN(CCOC(=O)C(O)(c2ccccc2)c2ccccc2)CC1,inactive: -17.1%,–
COc1ccc(NC2CCN(C(=O)OC(C)(C)C)CC2)cc1,inactive: 11.2%,–
COc1cc(C(=O)NCC2(N3CCCCC3)CCCCC2)ccc1OC(F)F,inactive: -2.62%,–
O=C(NCC1(N2CCOCC2)CCCCC1)c1cc(=O)[nH]c2ccccc12,inactive: 14.4%,–
